Measurements: patent US7153495B2, “Fragrance friendly and cost effective antiperspirant actives and method of making the same” (Reheis, Inc., priority 2004, dated 2006)

Experiment: Fragrance compatibility study (colour formation with fragrances, Macbeth Color Spectrophotometer and visual)
Assay type: physicochemical
Conditions: for ΔRG @ 45° C. / ΔYB @ 45° C.: 0.75% perfume, 20% active
Protocol: It is known that fragrances in antiperspirants can discolor over time due to the acidic nature and high transition metals concentration especially Fe, Cr, Co, Mn, Cu, and Ni. It is also known that glycine can initiate Schiff base reaction with aldehydes present in fragrances. […] Fragrance dispersions were prepared as follows: 0.75% perfume, 1.0% Arlasolve 200, 20% antiperspirant active (on an anhydrous basis), q.s. DI water. Samples were stored at 45° C. for four weeks and were analyzed for color visually as well as using Macbeth Color Spectrophotometer. Aluminum zirconium tetrachlorohydrex was compared against aluminum zirconium penta and octa salts of Examples 1 and 2. Color was measured as ΔYB (yellow blue) and ΔRG (red green) for all the fourteen fragrances and three actives.

[1] = average of 14 fragrances, four weeks at 45° C.
[2] = fragrance AC 10278/498988, four weeks at 45° C.
[3] = fragrance Bell J-8381, four weeks at 45° C.
[4] = fragrance Drom99-920, four weeks at 45° C.
[5] = fragrance FFS 52847, four weeks at 45° C.
[6] = fragrance Firm. 430–507, four weeks at 45° C.
[7] = fragrance Noville AN 119738, four weeks at 45° C.
[8] = fragrance Q-26238, four weeks at 45° C.
[9] = fragrance Q-26239, four weeks at 45° C.
[10] = fragrance Q-26240, four weeks at 45° C.
[11] = fragrance Q-26241, four weeks at 45° C.
[12] = fragrance Q-26242, four weeks at 45° C.
[13] = fragrance Quest Q-14072, four weeks at 45° C.
[14] = fragrance SM 25105D, four weeks at 45° C.
[15] = fragrance Takasago RM 1595, four weeks at 45° C.

discoloration compared with tetrasalt (14 fragrances, four weeks of shelf aging at 45° C., visual and instrumental): less discoloration | ΔRG @ 45° C., Average [1]: 6.8 | ΔYB @ 45° C., Average [1]: 8.21 | ΔRG @ 45° C. [2]: 2.30 | ΔYB @ 45° C. [2]: 4.40 | ΔRG @ 45° C. [3]: 3.19 | ΔYB @ 45° C. [3]: 5.36 | ΔRG @ 45° C. [4]: 2.53 | ΔYB @ 45° C. [4]: 4.16 | ΔRG @ 45° C. [5]: 6.18 | ΔYB @ 45° C. [5]: 6.70 | ΔRG @ 45° C. [6]: 12.66 | ΔYB @ 45° C. [6]: 13.52 | ΔRG @ 45° C. [7]: 12.92 | ΔYB @ 45° C. [7]: 13.19 | ΔRG @ 45° C. [8]: 4.69 | ΔYB @ 45° C. [8]: 6.31 | ΔRG @ 45° C. [9]: 4.93 | ΔYB @ 45° C. [9]: 8.07 | ΔRG @ 45° C. [10]: 4.92 | ΔYB @ 45° C. [10]: 5.64 | ΔRG @ 45° C. [11]: 3.71 | ΔYB @ 45° C. [11]: 6.60 | ΔRG @ 45° C. [12]: 6.42 | ΔYB @ 45° C. [12]: 10.32 | ΔRG @ 45° C. [13]: 11.30 | ΔYB @ 45° C. [13]: 12.08 | ΔRG @ 45° C. [14]: 9.07 | ΔYB @ 45° C. [14]: 8.65 | ΔRG @ 45° C. [15]: 10.38 | ΔYB @ 45° C. [15]: 9.94
Substance: aluminum zirconium penta salt [Example 2]
